Experimental data published in publication PMC3604185 (Biochemical pharmacology, 2013).

The chains behind the UniProt entries cited, without tags or fusion partners.
UniProt P0DMS8, whole entry: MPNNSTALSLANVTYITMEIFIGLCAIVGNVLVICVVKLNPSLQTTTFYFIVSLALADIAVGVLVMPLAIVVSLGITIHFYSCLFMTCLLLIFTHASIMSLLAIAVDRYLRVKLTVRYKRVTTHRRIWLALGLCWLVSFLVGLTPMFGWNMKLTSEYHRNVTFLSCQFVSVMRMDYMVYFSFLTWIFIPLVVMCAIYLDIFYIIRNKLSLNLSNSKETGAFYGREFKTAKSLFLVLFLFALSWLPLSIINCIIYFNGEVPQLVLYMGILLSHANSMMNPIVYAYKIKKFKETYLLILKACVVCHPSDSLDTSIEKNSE

Tests used:
hA3AR [1] = target: T1, hA3AR (Homo sapiens, UniProt P0DMS8); assay: FCM saturation binding of fluorescent ligand to whole CHO cells expressing hA3AR
hA3AR [2] = target: T1, hA3AR; assay: FCM kinetics; assay type: cell-based; conditions: 30 nM
A3AR in HL-60 cells = A3AR in HL-60 cells (Homo sapiens, UniProt P0DMS8); assay: FCM binding in HL-60 cells; conditions: 300 nM, 1 h, in presence of 100 nM XAC; displacement by 1 µM MRS1523

(1′S,2′R,3′S,4′S,5′S)-4′-[6-(3-chlorobenzylamino)-2-(N-cyanine(β-aminoethylaminocarbonyl)-1-butynyl)-9-yl]-2′,3′-dihydroxybicyclo[3.1.0]hexane-1′-carboxylic acid N-methylamide [Compound 1]
Bmax (maximal fluorescent intensity) (hA3AR [1]; 37 °C incubation in sucrose-free media): 245,974 MESF | nonspecific binding (hA3AR [1]; co-administration of MRS1220 or NECA): too low to quantify | Bmax (maximal fluorescent intensity) (hA3AR [1]; incubation for one hour at 4 °C): 58,655 MESF | Bmax (maximal fluorescent intensity) (hA3AR [1]; treatment with sucrose): 192,689 MESF | t1/2 of dissociation (hA3AR [2]; 0.4 M sucrose, 37 °C, initiated at 60 min by 10 µM MRS1220): 21.4 min | observed association rate constant (K) (hA3AR [2]; absence of sucrose at 37°C): 0.039 min⁻¹ | observed association rate constant (K) (hA3AR [2]; incubation at 4°C): 0.013 min⁻¹ | fraction of fluorescent label internalized at plateau (hA3AR [2]; plateau after 45 min): roughly 50% | observed association rate constant (K) (hA3AR [2]; presence of sucrose at 37°C): 0.026 min⁻¹ | t1/2 of association (hA3AR [2]; sucrose-containing media (0.4 M), 37 °C): 26.4 min | specific binding to HL-60 cells (A3AR in HL-60 cells): specific binding of MRS5218 to HL-60 cells was detected
